According to ChEMBL document CHEMBL4507258, “Data for DCP probe ABT-546” (2021):

Biological target: Endothelin receptor type B (Homo sapiens) (UniProt P24530)

CCCCN(CCCC)C(=O)CN1C[C@@H](c2cc(OC)c3c(c2)OCO3)[C@H](C(=O)O)[C@H]1CC(C)(C)CCC [A-545]
Ki: 13 µM (not active)
